Test results: patent publication US11453697B1, “Cyclic di-nucleotide compounds as sting agonists” (Merck Sharp & Dohme Corp., priority 2015, dated 2022)

Test system: IFN-β secretion in THP1 cells
Test: IFN-β secretion in THP1 cell culture (5 h)
Assay type: cell-based, human
Conditions: not given
Experimental: The ability of compounds to stimulate the secretion of interferon-beta from THP1 cells was measured using a human IFN-β AlphaLISA kit (Perkin Elmer, Cat. No. AL265F). The basic protocol is as follows:
The cell viability and count was ascertained using a Beckman Coulter V-Cell XR cell counter. The cells suspension was centrifuged at 200×g for 5 min at RT. […] Subsequent liquid transfers were performed using either a Matrix electronic multichannel pipette or an Agilent Bravo Automated Liquid Handling Platform.
The assay was started by dispensing 40 μL of the previously prepared cell suspension into the wells of the plate containing compounds. After 5 h incubation at 37° C., 5% CO2 in a humidified atmosphere, the plate of cells and compounds was centrifuged at 200×g for 5 min at RT. […] To these supernatant-containing wells was added 10 μL of 5× Anti-Analyte Acceptor beads (50 μg/mL of AlphaLISA HiBlock Buffer) and incubated for 30 min at RT while shaking on an orbital plate shaker. To each well was added 10 μL of 5× Biotinylated Antibody Anti-analyte (5 nM in AlphaLISA HiBlock Buffer) and incubated on an orbital plate shaker for 60 min at RT or overnight at 4° C. To each well was added 25 μL of 2× SA-Donor beads (80 μg/mL in AlphaLISA HiBlock Buffer) and incubated for 30-45 min at RT in the dark while shaking on an orbital plate shaker. The plate was then read on a Perkin Elmer Envision (λex=680 nm, λem=[…]). The percent effect of the AlphaLISA signal at each compound concentration was calculated based on 30 uM cGAMP positive controls and 0.3% DMSO negative controls. The plot of percent effect versus the log of compound concentration was fit with a 4-parameter concentration response equation to calculate EC50 values.
Compounds of the disclosure were evaluated for IFN-β secretion in THP1 cell culture as described above.

In the case of `Nc1nc2c(ncn2[C@@H]2O[C@@H]3COP(=O)(O)OC4[C@@H](COP(=O)(O)OC2C3)O[C@@H](n2cnc3c(N)ncnc32)[C@H]4F)c(=O)[nH]1` (stereo in doubt) [Example 25, 2-amino-9-[(5S,7R,8R,12aR,14R,15S,15aR)-14-(6-amino-9H-purin-9-yl)-15-fluoro-2,10-dihydroxy-2,10-dioxidooctahydro-12H-5,8-methanofuro[3,2-l][1,3,6,9,11,2,10]pentaoxadiphosphacyclotetradecin-7-yl]-1,9-dihydro-6H-purin-6-one], the “% Effect at 30 μM relative to 2′3′-cGAMP” value is reported as 145%.

Same assay, conditions: IFN-β secretion in THP1 cell culture, 5 h; compound at 30 μM; percent activation relative to 2′3′-cGAMP

Point of comparison: `Nc1nc2c(ncn2[C@@H]2O[C@@H]3COP(=O)(O)O[C@H]4[C@@H](F)[C@H](n5cnc6c(N)ncnc65)O[C@@H]4COP(O)(=S)O[C@@H]2[C@@H]3F)c(=O)[nH]1` (stereo partly drawn) [Example 289, 2-amino-9-[(5R,7R,8S,12aR,14R,15R,15aR,16R)-14-(6-amino-9H-purin-9-yl)-15,16-difluoro-2,10-dihydroxy-2-oxido-10-sulfidooctahydro-12H-5,8-methanofuro[3,2-l][1,3,6,9,11,2,10]pentaoxadiphosphacyclotetradecin-7-yl]-1,9-dihydro-6H-purin-6-one], “% Effect at 30 μM relative to 2′3′-cGAMP” value 58%. Against it:
- Nc1nc2c(ncn2[C@@H]2O[C@@H]3COP(=O)(O)OC4C[C@H](n5cnc6c(N)ncnc65)O[C@@H]4COP(=O)(O)O[C@H]2C3O)c(=O)[nH]1 (stereo partly drawn) [Example 3, (5R,7R,8R,12aR,14R,15aS,16R)-7,14-bis(6-amino-9H-purin-9-yl)-16-hydroxyoctahydro-12H-5,8-methanofuro[3,2-l] [1,3,6,9,11,2,10]pentaoxadiphosphacyclotetradecine-2,10-diolate 2,10-dioxide] — higher, 149%
- Nc1nc2c(ncn2[C@@H]2O[C@@H]3COP(=O)(O)O[C@H]4[C@H]5OC[C@]4(COP(=O)(O)O[C@@H]2[C@@H]3F)O[C@H]5n2cnc3c(N)ncnc32)c(=O)[nH]1 [Example 20, (5R,7R,8S,12aR,14R,15R,15aS,18R)-7-(2-amino-6-oxo-1,6-dihydro-9H-purin-9-yl)-14-(6-amino-9H-purin-9-yl)-18-fluorohexahydro-14H-15,12a-(epoxymethano)-5,8-methanofuro[3,2-l][1,3,6,9,11,2,10]pentaoxadiphosphacyclotetradecine-2,10(12H)-diolate 2,10-dioxide] — higher, 159%
- Nc1nc2c(ncn2[C@@H]2O[C@@H]3COP(=O)(O)O[C@H]4[C@@H](F)[C@H](n5cnc6c(N)ncnc65)O[C@@H]4COP(=O)(O)O[C@@H]2C3)c(=O)[nH]1 [Example 21, 2-amino-9-[(5S,7R,8R,12aR,14R,15R,15aR)-14-(6-amino-9H-purin-9-yl)-15-fluoro-2,10-dihydroxy-2,10-dioxidooctahydro-12H-5,8-methanofuro[3,2-l][1,3,6,9,11,2,10]pentaoxadiphosphacyclotetradecin-7-yl]-1,9-dihydro-6H-purin-6-one] — higher, 142%
- Nc1nc2c(ncn2[C@@H]2O[C@@H]3COP(=O)(O)O[C@H]4C[C@H](n5cnc6c(N)ncnc65)O[C@@H]4COP(=O)(O)O[C@@H]2[C@@H]3O)c(=O)[nH]1 [Example 1, (5R,7R,8R,12aR,14R,15aS,16R)-7-(2-amino-6-oxo-1,6-dihydro-9-purin-9-yl)-14-(6-amino-9-purin-9-yl)-16-hydroxyoctahydro-12H-5,8-methanofuro[3,2-l][1,3,6,9,11,2,10]pentaoxadiphosphacyclotetradecine-2,10-diolate 2,10-dioxide] — higher, 154%
